US4563452A, “Derivatives of oxazinobenzothiazine-6,6-dioxide” (Provesan S.A., priority 1982, dated 1986)

What was measured:
[1] = in vivo; details: mouse, po, LD-50, mouse, v.o. (oral), suspended in 5% gum arabic, 25 ml/kg
[2] = in vivo; details: rat, po, LD-50, rat, v.o. (oral), suspended in 5% gum arabic, 10 ml/kg

For `CN1c2c(oc(=O)n(-c3ccccn3)c2=O)-c2ccccc2S1(=O)=O` [Example 2, 5-methyl-3-(2-pyridyl)-2H,5H-1,3-oxazino[5,6-c][1,2]benzothiazine-2,4-(3H)dione-6,6-dioxide], the LD50 ([1]; female) was 8840 mg/kg, the LD50 ([1]; male) was 6190 mg/kg and the LD50 ([2]; female) was 1990 mg/kg. The LD50 ([2]; male) was 1430 mg/kg.
